Drawing on ChEMBL document CHEMBL3632459, “Synthesis and evaluation of aporphine analogs containing C1 allyl isosteres at the h5-HT(2A) receptor” (Bioorg Med Chem Lett, 2015), this text covers Ke(app) and Ratio Ke for three compounds.

The chains behind the UniProt entries cited, without tags or fusion partners.
UniProt P28223, whole entry: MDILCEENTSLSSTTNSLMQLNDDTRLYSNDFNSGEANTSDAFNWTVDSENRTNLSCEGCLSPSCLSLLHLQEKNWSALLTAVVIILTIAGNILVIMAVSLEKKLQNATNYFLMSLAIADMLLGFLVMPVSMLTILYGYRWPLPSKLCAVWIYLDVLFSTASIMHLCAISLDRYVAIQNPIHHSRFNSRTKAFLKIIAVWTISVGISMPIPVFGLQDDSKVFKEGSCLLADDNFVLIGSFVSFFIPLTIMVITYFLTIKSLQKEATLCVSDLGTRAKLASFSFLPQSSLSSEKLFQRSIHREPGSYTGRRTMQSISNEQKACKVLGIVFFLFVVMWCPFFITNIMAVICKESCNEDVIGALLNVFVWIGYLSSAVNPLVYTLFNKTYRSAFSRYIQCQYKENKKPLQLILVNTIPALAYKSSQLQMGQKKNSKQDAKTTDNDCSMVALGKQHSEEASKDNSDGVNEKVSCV

Test [1] addresses 5-hydroxytryptamine receptor 2A (Homo sapiens) (UniProt P28223).
Test [2] is filed under the species Homo sapiens. The test can be described thus: Selectivity ratio of Ke(app) for adrenergic alpha1A receptor (unknown origin) to Ke(app) for human 5-HT2A receptor. In a few lines:
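Ratio of apparent Ke values from matched FLIPR calcium functional assays at human 5-HT2A and at α1A receptors. Compounds were screened at 10 μM. Ke was taken from the rightward EC50 shift of an 8-point half-log agonist curve (5-HT at 5-HT2A) with one antagonist concentration, Ke = [L]/(DR−1). Values are means of ≥2 triplicate experiments.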

`COc1cc2c3c(c1OC)-c1cc4c(cc1CC3N(C)CC2)OCO4` (stereo not drawn) displayed a Ke(app) in test [1] of 850 nM.

As to `CC#CCOc1c(OC)cc2c3c1-c1cc4c(cc1CC3N(C)CC2)OCO4` (stereo not drawn), the Ratio Ke in test [2] worked out at 0.2.

Consider `C/C=C/COc1c(OC)cc2c3c1-c1cc4c(cc1CC3N(C)CC2)OCO4` (stereo not drawn), for which, in test [2], the Ratio Ke is 2.7.
